Assay results from patent US5225528A, “Cyclic hexapeptide oxytocin antagonists” (priority 1990, dated 1993).

The chains behind the UniProt entries cited, without tags or fusion partners.
UniProt P30560, whole entry: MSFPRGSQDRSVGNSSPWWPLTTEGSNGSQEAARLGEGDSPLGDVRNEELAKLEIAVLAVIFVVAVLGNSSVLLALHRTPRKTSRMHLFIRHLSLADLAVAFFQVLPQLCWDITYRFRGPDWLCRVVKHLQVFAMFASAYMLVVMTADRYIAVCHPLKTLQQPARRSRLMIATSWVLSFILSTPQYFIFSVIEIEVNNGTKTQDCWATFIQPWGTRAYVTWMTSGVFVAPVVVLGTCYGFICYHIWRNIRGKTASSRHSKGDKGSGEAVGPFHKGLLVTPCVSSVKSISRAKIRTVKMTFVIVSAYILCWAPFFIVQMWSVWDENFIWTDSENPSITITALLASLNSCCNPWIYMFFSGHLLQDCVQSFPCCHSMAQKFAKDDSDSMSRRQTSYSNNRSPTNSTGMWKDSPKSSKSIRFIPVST
UniProt Q00788, whole entry: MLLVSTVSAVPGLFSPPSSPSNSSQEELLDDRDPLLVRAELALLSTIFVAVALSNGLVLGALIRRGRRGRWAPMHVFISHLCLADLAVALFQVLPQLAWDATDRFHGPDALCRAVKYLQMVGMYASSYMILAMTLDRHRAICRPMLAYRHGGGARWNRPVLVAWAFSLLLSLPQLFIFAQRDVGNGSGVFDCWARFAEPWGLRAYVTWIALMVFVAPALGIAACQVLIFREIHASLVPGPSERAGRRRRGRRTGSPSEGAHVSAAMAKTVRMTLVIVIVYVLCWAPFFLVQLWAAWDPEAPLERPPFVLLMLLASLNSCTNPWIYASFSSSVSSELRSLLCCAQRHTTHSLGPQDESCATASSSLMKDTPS

Assays:
[1] = biological target: T1, AVP-V1 sites (Rattus norvegicus, UniProt P30560); experiment: [^3 H]AVP binding to crude membrane preparation of male rat liver (AVP-V1 sites); details: read-out: Receptor Binding Results IC50 (nM) [^3 H]-AVP-V1
T1 construct: crude membrane preparation of male rat liver (AVP-V1 sites); from tissue; host or cells: male rat liver, crude membranes
Description: (§1) Nonspecific binding (5-10% of the total binding) was determined using 10 μM unlabeled AVP, and the binding reaction was terminated by filtration as described above for the [^3 H]OT binding assay.

[2] = biological target: T2, AVP-V2 sites (Rattus norvegicus, UniProt Q00788); experiment: [^3 H]AVP binding to crude membrane preparation of male rat kidney medulla (AVP-V2 sites); details: rat kidney medulla membranes, 2 nM [^3 H]AVP; read-out: Receptor Binding Results IC50 (nM) [^3 H]-AVP-V2
T2 construct: male rat liver (AVP-V1 sites) or kidney medulla (AVP-V2 sites); from tissue; host or cells: male rat kidney medulla, crude membranes
Description: as §1

Row | Substance | IC50 [1] | IC50 [2]
1 | c-[D,L-3-(3-(1-Methyl)indolyl)alanyl-L-isoleucyl-D-pipecolyl-L-pipecolyl-D- histidyl-L-prolyl] [Example 153] | 10000 nM | –
2 | c-[D-Phenylalanyl-L-isoleucinyl-D-pipecolyl-D-piperazin-2-yl(4-Cbz)-L-(BOM)histidyl-L-prolyl] [Example 93] | > 10000 nM | > 10000 nM
3 | C-[D,L-3-(3-(7-Methyl)indolyl)alanyl-L-isoleucyl-D-pipecolyl-L-pipecolyl-D- histidyl-L-prolyl] [Example 155] | 10000 nM | –
